The values below come from PMC9101684, “Hempseed (Cannabis sativa) Peptide H3 (IGFLIIWV) Exerts Cholesterol-Lowering Effects in Human Hepatic Cell Line” (Nutrients, 2022).

In this test the target is T1, HMGCoAR (catalytic domain) (Homo sapiens, UniProt P04035).
T1 construct: HMGCoAR (catalytic domain) (2 µL); purchased Sigma-Aldrich
T1 sequence (P04035 426-888 limits assumed): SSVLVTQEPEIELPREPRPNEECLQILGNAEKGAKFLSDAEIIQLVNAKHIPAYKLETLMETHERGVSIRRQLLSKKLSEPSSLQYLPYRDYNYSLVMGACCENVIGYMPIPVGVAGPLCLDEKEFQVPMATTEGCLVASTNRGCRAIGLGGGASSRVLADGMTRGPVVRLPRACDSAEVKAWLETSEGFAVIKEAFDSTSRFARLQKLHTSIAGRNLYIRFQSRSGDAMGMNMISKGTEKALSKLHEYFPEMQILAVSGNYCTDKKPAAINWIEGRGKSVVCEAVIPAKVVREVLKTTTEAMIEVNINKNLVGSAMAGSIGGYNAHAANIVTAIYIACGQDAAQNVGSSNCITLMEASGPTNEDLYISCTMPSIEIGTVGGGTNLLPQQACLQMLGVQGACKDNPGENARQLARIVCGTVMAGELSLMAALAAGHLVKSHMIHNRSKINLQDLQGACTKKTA
The experiment in a line: HMGCoAR activity assay (NADPH oxidation, absorbance 340 nm). Type of test: biochemical. Particulars: purified catalytic domain of HMGCoAR, positive control, 37 °C, three independent experiments in triplicate.

On to `CC[C@H](C)C(=O)O[C@H]1C[C@H](O)C=C2C=C[C@H](C)[C@H](CC[C@@H](O)C[C@@H](O)CC(=O)O)[C@H]21` [pravastatin], for which the IC50 was determined as 550 nM.

The term IC50 denotes the midpoint of a concentration-inhibition curve.
